Source: patent US20060276373A1, “Neuroprotective complex for treatment of cerebral ischemia and injury” (priority 2004, published 2006)

Tests used:
[1] = system: rats subjected to temporary MCAo; experiment: Brain swelling after temporary MCAo; type: in vivo, Sprague-Dawley rats
Protocol: (§1) After preparing the DHA-Albumin complex, Male Sprague-Dawley rats (260-357 g) were anesthetized with halothane and nitrous oxide and subjected to up to 120 minutes of temporary MCAo by retrograde insertion of an intraluminal nylon suture coated with poly-L-lysine through the external carotid artery into the internal carotid artery and middle cerebral artery. Temperature probes were inserted in the rectum and the left temporalis muscle. Heating lamps were used to maintain rectal and temporalis muscle temperatures at 36 to 37 degrees Centigrade. In all rats, polyethylene catheters were introduced into the right femoral artery and vein for blood pressure recording, blood sampling, and drug infusion. Mean arterial blood pressure (MABP), plasma glucose, blood gases and hematocrit were continuously measured during the procedure.
(§2) The drug (DHA-albumin, 1.25 or 0.63 g/kg; human albumin, 25% solution, 1.25 or 0.63 g/kg; or normal saline) was administered intravenously at the time of reperfusion, i.e., 2 hours from the onset of MCAo. The animals were allowed to survive for three days. Brains were then perfusion-fixed with a mixture of 40% formaldehyde, glacial acetic acid and methanol (FAM, 1:1:8 by volume), and infarct volumes and brain swelling were determined at 9 coronal levels throughout the brain. Repeated-measures ANOVA with post-hoc Bonferroni tests were used to assess infarct areas. […]

[2] = system: rats subjected to temporary MCAo; experiment: Infarct areas and volumes after temporary MCAo; type: in vivo, Sprague-Dawley rats
Excerpt: The present invention arose from a series of laboratory investigations wherein the effect of a DHA-Albumin complex was compared to treatment of albumin alone after an induced temporary MCAo. Animals were randomly assigned to 1 of 5 treatment groups: (1) Albumin, 1.25 g/kg (n=10); (2) DHA-Albumin, 1.25 g/kg (n=7); (3) Albumin, 0.63 g/kg (n=7); (4) DHA-Albumin, 0.63 g/kg (n=7); and (5) Normal saline (n=8).
as §1, with “Heating lamps were used to maintain rectal and temporalis muscle temperatures at 36 to 37 degrees Centigrade. In all rats, polyethylene catheters were introduced into the right femoral artery and vein for blood pressure recording, blood sampling, and drug infusion.” left out
as §2, with “The animals were allowed to survive for three days.” left out, “brain.” for “brain. Repeated-measures ANOVA with post-hoc Bonferroni tests were used to assess infarct areas.”

[3] = system: rats subjected to fluid percussion injury; experiment: Fluid percussion head injury (FPI) model, Evans blue extravasation (BBB permeability / brain edema); type: in vivo, Wilstar rats; settings: 24 h post-FPI, continuous infusion by intraperitoneal mini-osmotic pump (DHA-Halb 0.63 g/kg), vs TBI/saline; FIG. 6
Protocol: For use in the fluid percussion head injury model, DHA was physically complexed to human albumin by the following method. The complex was prepared under sterile conditions in a laminar-flow hood. DHA (200 mg cis-4,7,10,13,16,19-Docosahexaenoic acid, sodium salt; #D-8768, Sigma Co., St. Louis, Mo.) was dissolved in 500 μl ethanol, and then injected into a 100-ml sealed bottle of Buminate 25% (human serum albumin, USP, 25% solution; Baxter Healthcare Corporation, Westlake Village, Calif.). The solution was thoroughly mixed at room temperature in a G24 environmental incubator shaker (New Brunswick Scientific Co., Edison, N.J.) at 500 rpm for 30 min. Quantitative analysis by mass spectrometry and gas-liquid chromatography indicated 0.999 μg DHA/μl solution. The solution was stored at 4° C. protected from light and oxygen (stored under nitrogen). […]
Also, the blood brain barrier (BBB) permeability was assessed by measuring Evans blue dye extravasation into the brain, similar to the method described in R. Noor et al., “Hyperthermia masks the neuroprotective effects of tissue plasminogen activator,” Stroke, vol. […]
The results are shown in FIG. 6, where the bars represent mean values±SEM, and the number of rats in each study is from 8 to 11. The Evans Blue ratio was calculated based on (ng EB/g brain tissue)/(μg EB/g plasma). […]

## Albumin: human serum albumin, USP, 25% solution, given alone as comparator
[1]; 0.63 g/kg i.v. at reperfusion after 2 h MCAo
  brain swelling: 9.4 ± 7.0%
[1]; 1.25 g/kg i.v. at reperfusion after 2 h MCAo
  brain swelling: 9.2 ± 3.9%
[2]; 1.25 g/kg i.v. at reperfusion, FIG. 2
  cortical infarct neuroprotection: high-grade neuroprotection
[2]; Albumin alone, dose not given, FIG. 3
  integrated striatal infarct volume / subcortical infarct reduction: not able to achieve this effect
[3]
  reduction in brain edema (Evans blue extravasation), left (contralateral) hemisphere: 48%
  reduction in brain edema (Evans blue extravasation), right (damaged side) hemisphere: 28%
